Data set [1] has as its target T1, BRD9 (Homo sapiens, UniProt Q9H8M2). Nature of the data set: Pharmacodynamic BRD9 western blot in SYO-1 xenograft model (Example 13). The settings on record: for pharmacodynamic activity assessed by BRD9 protein level (western blot): single i.v. dose (Table 6). Background: A western blot detects proteins with antibodies after separation by electrophoresis.
The nature of data set [2]: Interconversion between Enantiomer 1 and Enantiomer 2 in cell medium. The settings on record: 0.2 μM, cell medium 37° C.; for Mean peak area ratio of Enantiomer 1 over Enantiomer 2 peak area ratio: Enantiomer 2 dosing; for Mean peak area ratio of Enantiomer 2 over Enantiomer 1 peak area ratio: Enantiomer 1 dosing.
The target in data set [3] is T1, BRD9. Nature of the data set: BRD9 degradation by western blot in SYO-1 cells (Example 12). The conditions noted are these: SYO-1, 1 or 6 hours.

Chains of the proteins cited; added tags and fusions are not shown.
UniProt Q9H8M2, whole entry: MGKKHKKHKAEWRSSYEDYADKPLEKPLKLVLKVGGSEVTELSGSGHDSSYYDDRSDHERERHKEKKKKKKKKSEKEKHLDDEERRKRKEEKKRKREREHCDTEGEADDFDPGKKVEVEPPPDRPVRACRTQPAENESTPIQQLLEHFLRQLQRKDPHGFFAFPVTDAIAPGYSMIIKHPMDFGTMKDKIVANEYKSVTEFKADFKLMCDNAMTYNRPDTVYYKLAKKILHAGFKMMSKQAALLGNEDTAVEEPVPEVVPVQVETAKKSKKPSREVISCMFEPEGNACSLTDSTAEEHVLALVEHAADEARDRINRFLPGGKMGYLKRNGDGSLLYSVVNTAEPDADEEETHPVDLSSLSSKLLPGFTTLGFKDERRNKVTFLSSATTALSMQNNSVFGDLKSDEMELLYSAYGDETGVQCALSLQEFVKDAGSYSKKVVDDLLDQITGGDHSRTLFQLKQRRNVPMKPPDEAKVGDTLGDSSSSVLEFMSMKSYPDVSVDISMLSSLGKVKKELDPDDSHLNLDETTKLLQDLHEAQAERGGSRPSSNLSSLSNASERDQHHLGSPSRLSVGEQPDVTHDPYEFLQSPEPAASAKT

Molecules are shown by their SMILES.

As to `COc1cc(-c2cn(C)c(=O)c3cnc(N4CCC4)cc23)cc(OC)c1CN1CCC(CN2CCC3(CC2)CN(c2ccc4c(c2)C(=O)N(C2CCC(=O)NC2=O)C4)C3)CC1` (single isomer, unassigned), in data set [1] (single i.v. dose), the “time after a single dose for which BRD9 was degraded” value is “up to 72 hours”. In addition, the “pharmacodynamic activity assessed by BRD9 protein level (western blot)” value in data set [1] is given as “significant activity”. In addition, the “Mean peak area ratio of Enantiomer 1 over Enantiomer 2 peak area ratio” value in data set [2] (0 h) turned out to be 0.01; in data set [2] (0.5 h), 0.06; in data set [2] (6 h) it was 0.60. Moreover, the “BRD9 degradation compared with racemic compound D1” value in data set [3] was “slightly better than its racemic parent compound D1 in degrading BRD9 but overall comparable”.
For the compound `COc1cc(-c2cn(C)c(=O)c3cnc(N4CCC4)cc23)cc(OC)c1CN1CCC(CN2CCC3(CC2)CN(c2ccc4c(c2)C(=O)N([C@@H]2CCC(=O)NC2=O)C4)C3)CC1` (single isomer, unassigned), the “pharmacodynamic activity assessed by BRD9 protein level (western blot)” value in data set [1] was “inactive and did not degrade BRD9 protein”. Besides, the “Mean peak area ratio of Enantiomer 2 over Enantiomer 1 peak area ratio” value in data set [2] (0 h) and in data set [2] (0.5 h) was 0.0 each time.

The record behind these values is patent US20250085300A1, “STABILITY-ENHANCING COMPOSITIONS AND METHODS OF PREPARING COMPOUNDS” (FOGHORN THERAPEUTICS INC., priority 2021, published 2025).
